Earlier results in patent US10314915B2, “Catechin bioavailability enhancer comprising cyclodextrin” (AMOREPACIFIC CORPORATION, priority 2012, dated 2019).

Conditions: generally known

## catechin
  catechin absorbed in intestines, level of the intake: less than 2%
